The assay concerns the target T1, FKBP (Homo sapiens, UniProt P62942).
T1 construct: made in house
The assay can be described thus: Competitive fluorescence polarization (FP) assay of binding to FKBP with fluoresceinated FK506 probe AP1491. To be noted: for fold loss in affinity (=IC50/IC50 of rapamycin): C24 oxime experiment.

Chains of the proteins cited; added tags and fusions are not shown.
UniProt P62942, whole entry: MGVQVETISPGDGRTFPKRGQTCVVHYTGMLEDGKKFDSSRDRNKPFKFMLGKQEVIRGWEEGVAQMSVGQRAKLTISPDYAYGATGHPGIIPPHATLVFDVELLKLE

Setting [1] is: rapamycin C24 oximes, competitive FP vs AP1491 probe, recombinant FKBP.

We go through 8 substances from patent US20030206891A1, “Rapamycin-based biological regulation” (ARIAD Gene Therapeutics, Inc., priority 1995, published 2003).

A value given as a limit tells only on which side of the number the result lay.

The term IC50 denotes the concentration needed to halve the response being measured. Consider “C14-desoxo-rapamycin [reference compound]”, for which the IC50 (C7 rapalog experiment, competitive FP) stood at 0.162 µM and the half-inhibitory concentration (IC50) (controls in the C24 oxime experiment, competitive FP) was 0.186 µM.

With “Rapamycin (E and Z)-24-(O-benzyloxime) [AP1682]”, the “fold loss in affinity (=IC50/IC50 of rapamycin)” value (shortened to “fold loss in affinity”) was over 3000. Moreover, the IC50 under setting [1] is over 30 µM.

Consider “Rapamycin (E and Z)-24-(O-benzyloxime) [AP1683]”, for which the “fold loss in affinity” value turned out to be 346. The IC50 under setting [1] turned out to be 3.46 µM.

Consider “Rapamycin (E and Z)-24-(O-ethyloxime) [AP1689]”, for which the “fold loss in affinity” value is 355. For the same substance, the IC50 under setting [1] came out at 3.55 µM.

For the substance “Rapamycin (E and Z)-24-(O-isobutyloxime) [AP1684]”, the “fold loss in affinity” value is over 3000. In addition, the IC50 under setting [1] was over 30 µM.

Consider “Rapamycin (E and Z)-24-(O-isobutyloxime) [AP1685]”, for which the “fold loss in affinity” value is reported as 1000. For the same substance, the concentration for half-maximal inhibition (IC50) under setting [1] turned out to be 10 µM.

Take “Rapamycin (E and Z)-24-(O-methyloxime) [AP1731]”: the “fold loss in affinity” value is on record as 405. The IC50 under setting [1] was 3.2 µM.

As to “Rapamycin (E and Z)-24-(O-methyloxime) [AP1732]”, the “fold loss in affinity” value is 203. Also, the IC50 under setting [1] was determined as 1.6 µM.
